The numbers were not newly measured in article PMC4604036 (NeuroImage, 2015), which cites them from elsewhere.

The data set has as its system PDE10A. The settings on record: read-out: PDE10A inhibition IC50; ref Tu et al., 2010; cited from earlier work.

SMILES strings stand for the structures.

On to `COc1ccc(Cc2nccc3cc(OC)c(OC)cc23)cc1OC` [Papaverine, reference compound], for which the IC50 (commonly the point on the concentration scale where inhibition reaches its midpoint) is 36 nM.
